Experimental data: patent US4497806A, “Triorganotin compounds, antifungal and antibacterial compositions containing same, and method of using same” (priority 1983, dated 1985)

Key:
[1] = system: Aspergillus niger (ATCC 12845); assay: Antifungal activity, agar plate growth inhibition; format: cell-based; conditions: 14 days; also: key: -: no inhibition of growth; +: partial inhibition; 2+: complete inhibition
[2] = system: Chaetomium globosum (ATCC 6205); assay: Antifungal activity, agar plate growth inhibition; format: cell-based; conditions: 14 days; also: key: -: no inhibition of growth; +: partial inhibition; 2+: complete inhibition
[3] = system: Cladosporium carpophilium (ATCC 12117); assay: Antifungal activity, agar plate growth inhibition; format: cell-based, Cladosporium carpophilum; conditions: 14 days; also: key: -: no inhibition of growth; +: partial inhibition; 2+: complete inhibition
[4] = system: Fusarium moniliforme (ATCC 10052); assay: Antifungal activity, agar plate growth inhibition; format: cell-based; conditions: 14 days; also: key: -: no inhibition of growth; +: partial inhibition; 2+: complete inhibition
[5] = system: Myrothecium verrucaria (ATCC 9095); assay: Antifungal activity, agar plate growth inhibition; format: cell-based; conditions: 14 days; also: key: -: no inhibition of growth; +: partial inhibition; 2+: complete inhibition
[6] = system: Penicillium notatum (ATCC 9179); assay: Antifungal activity, agar plate growth inhibition; format: cell-based; conditions: 14 days; also: key: -: no inhibition of growth; +: partial inhibition; 2+: complete inhibition
[7] = system: Rhizopus stolonifer (ATCC 10404); assay: Antifungal activity, agar plate growth inhibition; format: cell-based; conditions: 14 days; also: key: -: no inhibition of growth; +: partial inhibition; 2+: complete inhibition
[8] = system: Saccharomyces cerevisiae (ATCC 9896); assay: Antifungal activity, agar plate growth inhibition; format: cell-based; conditions: 14 days; also: key: -: no inhibition of growth; +: partial inhibition; 2+: complete inhibition
[9] = system: Trichoderma viride (ATCC 8678); assay: Antifungal activity, agar plate growth inhibition; format: cell-based; conditions: 14 days; also: key: -: no inhibition of growth; +: partial inhibition; 2+: complete inhibition
[10] = system: Escherichia coli; assay: Antibacterial activity, agar growth inhibition; format: cell-based; conditions: for growth inhibition: Gram-negative, 24 hours at 37° C.
[11] = system: Trichophyton mentagrophytes (ATCC 9129); assay: Antifungal activity, agar plate growth inhibition; conditions: 14 days; also: key: -: no inhibition of growth; +: partial inhibition; 2+: complete inhibition

SMILES: CC(=O)[N](C#N)[Sn-]([Cl])([c]1ccccc1)([c]1ccccc1)[c]1ccccc1.CC[NH+](CC)CC [compound 5, Triethylammonium-(acetylcyanoamino)-chloro-triphenyl stannate]
- growth inhibition ([1]; 1 μg/ml): +
- growth inhibition ([1]; 10 μg/ml): +
- growth inhibition ([1]; 100 μg/ml): +
- growth inhibition ([2]; 1 μg/ml): +
- growth inhibition ([2]; 10 μg/ml): +
- growth inhibition ([2]; 100 μg/ml): +
- growth inhibition ([3]; 1 μg/ml): +
- growth inhibition ([3]; 10 μg/ml): +
- growth inhibition ([3]; 100 μg/ml): +
- growth inhibition ([4]; 1 μg/ml): +
- growth inhibition ([4]; 10 μg/ml): +
- growth inhibition ([4]; 100 μg/ml): +
- growth inhibition ([5]; 1 μg/ml): +
- growth inhibition ([5]; 10 μg/ml): +
- growth inhibition ([5]; 100 μg/ml): +
- growth inhibition ([6]; 1 μg/ml): +
- growth inhibition ([6]; 10 μg/ml): +
- growth inhibition ([6]; 100 μg/ml): +
- growth inhibition ([7]; 1 μg/ml): +
- growth inhibition ([7]; 10 μg/ml): +
- growth inhibition ([7]; 100 μg/ml): +
- growth inhibition ([8]; 1 μg/ml): +
- growth inhibition ([8]; 10 μg/ml): +
- growth inhibition ([8]; 100 μg/ml): +
- growth inhibition ([9]; 1 μg/ml): +
- growth inhibition ([9]; 10 μg/ml): +
- growth inhibition ([9]; 100 μg/ml): +
- growth inhibition (in words) ([10]; 100 μg/ml): partially
- growth inhibition ([10]; 1 μg/ml): -
- growth inhibition ([10]; 10 μg/ml): -
- growth inhibition ([11]; 1 μg/ml): +
- growth inhibition ([11]; 10 μg/ml): +
